Values quoted from earlier work in patent US20250177420A1, “BCL-2 INHIBITORS AND AURORA KINASE INHIBITORS FOR TREATING CANCER” (Genome Research Limited, priority 2022, published 2025).

The chains behind the UniProt entries cited, without tags or fusion partners.
UniProt P10415, whole entry: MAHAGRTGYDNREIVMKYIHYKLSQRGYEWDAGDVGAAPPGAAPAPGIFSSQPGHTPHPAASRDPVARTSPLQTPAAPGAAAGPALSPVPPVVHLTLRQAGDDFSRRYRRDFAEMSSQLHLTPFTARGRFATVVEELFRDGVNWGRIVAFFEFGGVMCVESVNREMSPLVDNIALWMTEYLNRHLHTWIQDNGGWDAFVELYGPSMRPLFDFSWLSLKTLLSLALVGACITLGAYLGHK

Target: Bcl-2 (Homo sapiens, UniProt P10415)
Details: cell-free assays

Structure (SMILES): CC1(C)CCC(c2ccc(Cl)cc2)=C(CN2CCN(c3ccc(C(=O)NS(=O)(=O)c4ccc(N[C@H](CCN5CCOCC5)CSc5ccccc5)c(S(=O)(=O)C(F)(F)F)c4)cc3)CC2)C1 [Navitoclax, 4-(4-{[2-(4-chlorophenyl)-5,5-dimethylcyclohex-1-en-1-yl]methyl}piperazin-1-yl)-N-(4-{[(2R)-4-(morpholin-4-yl)-1-(phenylsulfanyl)butan-2-yl]amino}-3-(trifluoromethanesulfonyl)benzene-1-sulfonyl)benzamide]
- Ki: ≤ 1 nM
